Earlier results as cited in patent US20210206820A1 (Purdue Research Foundation, priority 2018, published 2021).

Target: T1, VPAC-2 (Homo sapiens, UniProt P41587)
T1 sequence (P41587 24-438): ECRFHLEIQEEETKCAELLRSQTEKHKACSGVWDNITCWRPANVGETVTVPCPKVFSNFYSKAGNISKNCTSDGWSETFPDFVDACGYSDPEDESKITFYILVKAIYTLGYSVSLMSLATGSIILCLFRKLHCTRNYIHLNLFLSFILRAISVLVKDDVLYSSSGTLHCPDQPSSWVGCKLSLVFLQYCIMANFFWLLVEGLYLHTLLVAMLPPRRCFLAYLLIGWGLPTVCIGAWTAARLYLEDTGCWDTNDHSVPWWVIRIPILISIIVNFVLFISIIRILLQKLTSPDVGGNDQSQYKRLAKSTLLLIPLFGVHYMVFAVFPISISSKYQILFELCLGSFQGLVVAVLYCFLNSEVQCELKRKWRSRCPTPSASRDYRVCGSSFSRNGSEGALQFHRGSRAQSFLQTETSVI
Details: VIP compared with PACAP; cited from earlier work

Substance: Vasoactive Intestinal Peptide [VIP]
- Affinity for VPAC-2: equal affinity
